Tested on: Liver microsome
Experiment: Drug metabolism in human liver microsomes assessed as intrinsic clearance per mg protein by multiple depletion curves method

O=C(O)Cc1ccccc1Nc1c(Cl)cccc1Cl [DICLOFENAC]
CLH: 143 µL/min/g

— ChEMBL document CHEMBL3526124, “Optimized experimental design for the estimation of enzyme kinetic parameters: an experimental evaluation” (Drug Metab Dispos, 2012)
